Molecular target: Amine oxidase [flavin-containing] B (Homo sapiens, UniProt P27338)
Experiment: Inhibition of recombinant human monoamine oxidase B expressed in insect microsomes using kynuramine as substrate after 20 mins by fluorescence spectrophotometry
Design: species or system Microsome
How it was run: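 Enzyme source: insect-cell microsomes with recombinant human MAO-A or MAO-B at 0.0075 mg protein/mL, with kynuramine as substrate. Buffer was potassium phosphate 100 mM, pH 7.4, made isotonic with 20.2 mM KCl. Six inhibitor concentrations (0–100 µM) spanned at least 3 log units. Incubation was 20 min at 37 °C, then stopped with 2 N NaOH. 4-Hydroxyquinoline was read by fluorescence ([…] nm as printed) against a 0.047–1.56 µM standard curve. IC50 came from sigmoidal fits of initial rate versus log inhibitor, in triplicate, mean ± SD.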

The chains behind the UniProt entries cited, without tags or fusion partners.
UniProt P27338, whole entry: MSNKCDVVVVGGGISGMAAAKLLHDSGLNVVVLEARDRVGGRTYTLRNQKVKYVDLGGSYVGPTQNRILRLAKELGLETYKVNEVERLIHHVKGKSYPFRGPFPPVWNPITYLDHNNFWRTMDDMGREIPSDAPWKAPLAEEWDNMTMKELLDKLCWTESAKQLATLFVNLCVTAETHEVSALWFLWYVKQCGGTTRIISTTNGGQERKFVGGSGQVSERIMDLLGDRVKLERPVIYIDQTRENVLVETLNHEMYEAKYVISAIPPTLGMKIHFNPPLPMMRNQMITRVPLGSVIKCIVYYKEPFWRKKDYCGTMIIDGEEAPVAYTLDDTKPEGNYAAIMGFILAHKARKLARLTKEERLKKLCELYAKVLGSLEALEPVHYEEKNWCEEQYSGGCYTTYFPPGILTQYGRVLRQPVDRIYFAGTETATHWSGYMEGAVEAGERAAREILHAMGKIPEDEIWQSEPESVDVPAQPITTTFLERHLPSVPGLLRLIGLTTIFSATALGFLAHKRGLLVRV

Row | Structure (SMILES) | IC50 [nM]
1 | O=c1ccoc2ccc(OCc3ccc(Cl)cc3)cc12 | 2
2 | O=c1ccoc2ccc(OCc3ccc(F)cc3)cc12 | 8.4

— ChEMBL document CHEMBL1944574, “Inhibition of monoamine oxidase by selected C6-substituted chromone derivatives” (Eur J Med Chem, 2012)
